Experimental data as given in patent US20230277590A1.

Biological target: Mesothelin (MSLN) on target cells (human)

murine SS1 MSLN CAR, second generation (MSLN_SS1 CD8HT 41BB CD3z)
Time (hours) to 80% max killing of HeLa cells by transduced primary T cells (hours to 80% max killing (E:T 4:1)): 44
